Assays:
[1] = target: T1, Complex of Baculoviral IAP repeat-containing protein 7 [63-159,S150G] and E3 ubiquitin-protein ligase XIAP [336-348] (Homo sapiens, UniProt Q96CA5, S150G); assay: Fluorescence Polarization Affinity Measurements; details: pH 7.2; 22 °C
T1 construct: 63-159; 336-348
Protocol: (§1) Samples for fluorescence polarization affinity measurements were prepared by addition of serial dilutions of target protein to each well containing antagonist and polarization probe in the buffer. Samples were read after 30-min incubation. Fluorescence polarization values were plotted as a function of the antagonist concentration, and the IC50 values were obtained by fitting the data to a four-parameter equation using KaleidaGraph software. Ki values for the antagonists were determined from the IC50 values.

Sequences of proteins named here, by UniProt entry; tags and fusion partners are left off. A line that says so, or that is headed by a name, gives the form on record, which may keep a tag or linker. Residues count along the entry.
UniProt Q96CA5, as listed by the source S150G: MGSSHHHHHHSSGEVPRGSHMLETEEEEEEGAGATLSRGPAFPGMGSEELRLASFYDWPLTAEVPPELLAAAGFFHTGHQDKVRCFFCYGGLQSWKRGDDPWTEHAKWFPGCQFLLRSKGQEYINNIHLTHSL
UniProt P98170, 241-356: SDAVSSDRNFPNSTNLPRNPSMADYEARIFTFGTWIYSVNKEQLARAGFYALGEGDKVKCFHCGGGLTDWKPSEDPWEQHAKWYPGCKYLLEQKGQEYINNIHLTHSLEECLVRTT

[2] = target: T2, E3 ubiquitin-protein ligase XIAP [241-356] (Homo sapiens, UniProt P98170); assay: Fluorescence Polarization Affinity Measurements
T2 construct: 241-356
Protocol: as §1

SMILES: CC(C)[C@H](NC(=O)[C@H](C)N)C(=O)N1CCC[C@H]1C(=O)NCC(c1ccccc1)c1ccccc1 [(2S)-1-[(2S)-2-[(2S)-2-aminopropanamido]-3-methylbutanoyl]-N-(2,2-diphenylethyl)pyrrolidine-2-carboxamide]
- Ki [1]: 0.043 µM
- Ki [2]: 0.345 µM

— BindingDB's records for doi:10.1021/jm801450c (Genentech, 2009)
